Laboratory results as given in patent publication EP0549264A1, “Purified para-nitrobenzyl esterase from bacillus” (OKLAHOMA STATE UNIVERSITY, priority 1991, dated 1993).

Biological target: T1, PNB esterase (Bacillus subtilis, UniProt P37967)
T1 construct: A culture of Bacillus subtilis NRRL B-8079 was harvested and frozen by conventional methods; made in house; host or cells: Bacillus subtilis NRRL B-8079 (natural producer; enzyme purified from cell-free extract)
T1 sequence (P37967 1-489): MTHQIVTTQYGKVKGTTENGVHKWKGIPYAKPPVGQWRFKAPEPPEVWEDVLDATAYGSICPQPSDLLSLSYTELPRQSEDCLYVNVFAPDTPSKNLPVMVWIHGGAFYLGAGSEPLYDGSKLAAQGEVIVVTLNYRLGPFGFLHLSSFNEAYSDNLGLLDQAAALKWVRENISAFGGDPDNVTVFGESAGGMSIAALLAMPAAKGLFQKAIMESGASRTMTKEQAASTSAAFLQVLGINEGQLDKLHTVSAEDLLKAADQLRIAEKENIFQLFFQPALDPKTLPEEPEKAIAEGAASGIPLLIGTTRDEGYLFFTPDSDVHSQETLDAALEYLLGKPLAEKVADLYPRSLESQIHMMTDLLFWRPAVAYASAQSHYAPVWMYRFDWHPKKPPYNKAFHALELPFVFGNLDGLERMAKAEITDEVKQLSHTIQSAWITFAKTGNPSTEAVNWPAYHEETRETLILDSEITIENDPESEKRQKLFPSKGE
Assay: PNB esterase activity assay (HPLC, method of Example 1D), effect of inhibitors
Format: biochemical

O=S(=O)(F)Cc1ccccc1 [Phenylmethylsulfonylfluoride]
Inhibition (%): 100%
